{"source": "patent US5041142A", "about": "“Peroxymetallates and their use as bleach activating catalysts” (Lever Brothers Company, division of Conopco Inc., priority 1990, dated 1991)", "key": {"[1]": {"assay": "Reactivity with Ragu extract in solution (reaction of Ragu stain and hydrogen peroxide, UV/Vis)", "conditions": "Time = 100 secs; corrected for the effect of hydrogen peroxide alone"}, "[2]": {"assay": "Bleaching of tea-stained cloth (BC-1 cloth), reflectance change versus hydrogen peroxide alone", "conditions": "for ΔΔR: room temperature, 5 mM complex and 10 mM hydrogen peroxide, 2 h"}}, "data": [{"smiles": "CCc1ccncc1.CCc1ccncc1.[O]=[Mo]12([O][O]1)[O][O]2", "note": "[MoO5 (C2 H5 C5 H4 N)2, bis(4-ethylpyridine)diperoxomonooxo-molybdenumVI]", "values": [{"measurement": "Change Abs 480 nm", "setting": "[1]", "value": 0.02}, {"measurement": "lowering of ΔΔR by use of dmf as solvent", "setting": "[2]; dmf instead of methanol/acetonitrile mix", "value": "~ 1 BC-1 unit"}, {"measurement": "ΔΔR", "setting": "[2]; pH 8", "value": 2.2}, {"measurement": "ΔΔR", "setting": "[2]; pH 9", "value": -0.5}, {"measurement": "ΔΔR", "setting": "[2]; pH 10", "value": -2.7}]}, {"smiles": "C[N+](C)(C)CCOC(=O)c1ccncc1.O.[Cl-].[O]=[Mo]12([O][O]1)[O][O]2", "note": "[4-cholylpyridinecarboxylatediperoxomonooxomolybdenumVI chloride hydrate]", "values": [{"measurement": "Change Abs 480 nm", "setting": "[1]", "value": 0.03}, {"measurement": "bleaching (ΔΔR)", "setting": "[2]; 0.5 mM complex", "value": 2.1, "unit": "units"}, {"measurement": "bleaching (ΔΔR)", "setting": "[2]; 5 mM complex", "value": 4.5, "unit": "BC-1 units"}, {"measurement": "maximum ΔΔR", "setting": "[2]; pH 8, 5 mM complex/25° C.", "value": 4.5}, {"measurement": "ΔΔR", "setting": "[2]; pH 8", "value": 4.5}, {"measurement": "ΔΔR", "setting": "[2]; pH 9", "value": 2.0}, {"measurement": "ΔΔR", "setting": "[2]; pH 10", "value": 3.9}]}]}
